The structures appear in SMILES notation.

Take `Cc1ccccc1` [toluene]: the “Reaction Time, Post Challenge Mean” value (17 cases, post challenge) is on record as 238.40 millisecs. Also, the “Reaction Time” value (one patient, after toluene challenge) is 219 ms.

The record behind these values is patent US6485970B1, “Immunointeractive antibody” (priority 1997, dated 2002).
